Ab-14 heavy chain CDR variants: yeast mating affinities

Target peptide (SARS-CoV-2 spike, HR2 region): PDVDLGDISGINAS

Ab-14 is the parent antibody, in scFv form: VH, then the linker GGGGSGGGGSGGGGS, then VL. The light chain is unchanged in all variants.
VH: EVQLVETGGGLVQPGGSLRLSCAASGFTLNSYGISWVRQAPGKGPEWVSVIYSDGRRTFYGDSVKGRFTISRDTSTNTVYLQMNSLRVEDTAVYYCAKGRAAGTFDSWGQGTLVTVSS
VL: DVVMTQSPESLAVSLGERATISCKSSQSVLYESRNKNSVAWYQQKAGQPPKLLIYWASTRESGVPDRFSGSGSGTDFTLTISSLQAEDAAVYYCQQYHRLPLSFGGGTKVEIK

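Library AAYL49 holds single substitutions and randomly drawn double and triple substitutions in the CDRs. The scFvs were displayed on barcoded MATa yeast, the peptide on MATalpha yeast. Binding brings cells together so that they mate, and sequencing counts the barcode pairs among the diploids. Read counts were normalised to the haploid input and turned into Kd by a linear fit to BCL2-family pairs of known affinity, for each replicate. Mating was done three times.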

Changes read parent residue, position, new residue, counted from the first residue of the VH shown. Values are log10 of the apparent Kd in nM; lower means stronger binding. A pair that was not seen in that replicate is written "ND"; this usually means weak binding, but a binder can also be missed. Parent in this assay: reference entry 0.65, copy in this library 4.11 (one replicate of three).

{"changes": "Y32K+Y52H+F59C", "log10 Kd, replicates": "ND ND ND", "control signals": "2/9 (3.81)"}
{"changes": "R57M+G103A+F105S", "log10 Kd, replicates": "ND ND ND", "control signals": "1/9 (4.11)"}
{"changes": "G55K+D106C", "log10 Kd, replicates": "ND ND ND", "control signals": "0/9"}
{"changes": "G33Y+S53T+V64H", "log10 Kd, replicates": "ND ND ND", "control signals": "1/9 (4.74)"}
{"changes": "D54I+A101V+G103Q", "log10 Kd, replicates": "ND ND ND", "control signals": "0/9"}
{"changes": "F27T+V50I", "log10 Kd, replicates": "ND 4.57 ND", "control signals": "2/9 (3.67)"}
{"changes": "S53F+A102N+T104C", "log10 Kd, replicates": "ND ND ND", "control signals": "0/9"}
{"changes": "I51D+G99T+D106G", "log10 Kd, replicates": "ND ND 4.55", "control signals": "5/9 (4.56)"}
{"changes": "I51Y+S53Q+G99V", "log10 Kd, replicates": "3.61 ND 4.10", "control signals": "0/9"}
{"changes": "N30Y+Y60T+R100S", "log10 Kd, replicates": "3.26 3.64 3.55", "control signals": "5/9 (4.76)"}
{"changes": "R56V+T58P+G103N", "log10 Kd, replicates": "ND ND 4.39", "control signals": "3/9 (4.16)"}
{"changes": "R56G+A102P+S107E", "log10 Kd, replicates": "3.90 3.63 ND", "control signals": "3/9 (3.88)"}
{"changes": "S35W+Y52K+T104I", "log10 Kd, replicates": "ND ND ND", "control signals": "1/9 (3.01)"}
{"changes": "S31N+R56Q+D106A", "log10 Kd, replicates": "0.86 1.00 1.05", "control signals": "6/9 (5.14)"}
{"changes": "L29F+S35F+S63R", "log10 Kd, replicates": "ND ND ND", "control signals": "0/9"}
{"changes": "I51Q+R57I+D62R", "log10 Kd, replicates": "ND ND ND", "control signals": "2/9 (3.09)"}
{"changes": "Y60R+G61T", "log10 Kd, replicates": "ND ND ND", "control signals": "0/9"}
{"changes": "T58S+Y60I+G99L", "log10 Kd, replicates": "ND ND ND", "control signals": "3/9 (4.36)"}
{"changes": "T28D+S53P+V64F", "log10 Kd, replicates": "0.58 0.78 0.73", "control signals": "4/9 (5.16)"}
{"changes": "S31K", "log10 Kd, replicates": "0.83 1.11 1.14", "control signals": "1/9 (3.35)"}
{"changes": "G61V+K65H+F105S", "log10 Kd, replicates": "2.05 2.50 2.80", "control signals": "0/9"}
{"changes": "N30E+S31C+A102S", "log10 Kd, replicates": "1.73 1.77 1.84", "control signals": "5/9 (4.62)"}
{"changes": "N30F+V50I+R56A", "log10 Kd, replicates": "2.24 ND ND", "control signals": "0/9"}
{"changes": "L29C+V50M+G61E", "log10 Kd, replicates": "ND ND ND", "control signals": "1/9 (3.22)"}
{"changes": "L29S+F105M+D106M", "log10 Kd, replicates": "ND ND ND", "control signals": "0/9"}
{"changes": "F27K+Y32A+Y60C", "log10 Kd, replicates": "ND ND ND", "control signals": "2/9 (3.71)"}
{"changes": "F59T+A102S+F105N", "log10 Kd, replicates": "ND ND 4.86", "control signals": "2/9 (4.22)"}
{"changes": "G26D+I51E+V64F", "log10 Kd, replicates": "ND ND 3.06", "control signals": "0/9"}
{"changes": "D62V+G99H+G103L", "log10 Kd, replicates": "ND ND ND", "control signals": "0/9"}
{"changes": "F59P+A101D", "log10 Kd, replicates": "ND ND ND", "control signals": "0/9"}

The opening 2 entries, copied out:

changes,"log10 Kd, replicates",control signals
Y32K+Y52H+F59C,ND ND ND,2/9 (3.81)
R57M+G103A+F105S,ND ND ND,1/9 (4.11)

Three control strains display no target. For library AAYL49, 15% of the pairings with them gave a signal, with a median of 4.06 and one signal in twenty below 2.83, so weak values seen in few replicates may be background. The control count says in how many pairings with the empty strains this scFv gave a signal, with their mean in brackets.

Reference: Engelhart et al. 2022, doi:10.1038/s41597-022-01779-4. File: FLAb, binding data.